# Antibody variant affinities, Ab-14 heavy chain, assay 1

Source: Engelhart et al. 2022 (doi:10.1038/s41597-022-01779-4), MIT Lincoln Laboratory and A-Alpha Bio; data file from the FLAb repository.

Target peptide (SARS-CoV-2 spike, HR2 region): PDVDLGDISGINAS

Parent scFv Ab-14: VH joined to VL by three GGGGS repeats. Changes lie in the heavy chain CDRs alone.
VH: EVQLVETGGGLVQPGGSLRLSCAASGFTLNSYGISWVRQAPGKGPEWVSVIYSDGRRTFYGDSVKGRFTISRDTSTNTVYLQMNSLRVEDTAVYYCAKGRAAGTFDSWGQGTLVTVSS
VL: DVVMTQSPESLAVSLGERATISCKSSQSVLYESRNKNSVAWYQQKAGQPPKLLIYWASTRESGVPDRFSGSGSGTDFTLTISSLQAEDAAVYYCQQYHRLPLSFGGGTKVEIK

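The parent was found by panning a naive human phage display library on the peptide. Library AAYL49 holds single substitutions and randomly drawn double and triple substitutions in the CDRs. The scFvs were displayed on barcoded MATa yeast, the peptide on MATalpha yeast. After mating in shaken culture at 30 °C for 16 h, diploids were selected and their barcode pairs sequenced. Scores were corrected for input abundance and mapped to Kd with protein pairs of known affinity run in the same pool. Each pool was mated in three replicate cultures.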

Variants are written as CDR1, CDR2 and CDR3 of the heavy chain (limits as in the source). Parent: GFTLNSYGIS, VIYSDGRRTFYGDSVK, GRAAGTFDS. This list gathers variants with a substitution at G33 (VH, numbered from residue 1). Each Kd is an estimate from the mating assay, the geometric mean of the replicates in which the pair was seen; lower is stronger. Where no diploid with the target was found in any replicate, the entry reads "no signal": below detection, most likely a poor binder, though not proof of it. Empty control strains, which show no peptide, gave a signal in 15% of pairings with library AAYL49; the median was 11 µM and 95% of these signals were weaker than 680 nM. No background was subtracted. Also given: how often the same scFv was detected with the empty control strains.

The variant GFTLNSYWIS, VIYSDGRRTFYGDTVK, QRAAGTFDS gave 5.5 µM (1 of 3 replicates; controls 0 of 9).
The variant GFTLNSYCIS, VQYSDGRRTFYGDSVK, GRAAGTFDS gave no signal (0 of 3 replicates; controls 0 of 9).
The variant GFTQNSYMIS, VIYSDGRRTFYGDSVK, GRAAITFDS gave no signal (0 of 3 replicates; controls 0 of 9).
The variant GFTHNSYFIS, VIYSDGRRTFYGDSVK, GRAAGTFDE gave no signal (0 of 3 replicates; controls 3 of 9).
The variant GFTNNSYMIS, FIYSDGRRTFYGDSVK, GRAAGTFDS gave 1.9 µM (2 of 3 replicates; controls 0 of 9).
The variant GFRLNSYVIS, VIMSDGRRTFYGDSVK, GRAAGTFDS gave 110 µM (2 of 3 replicates; controls 3 of 9).
The variant GFTLNSPMIS, VIYSDGRRTFYGDVVK, GRAAGTFDS gave 76 µM (3 of 3 replicates; controls 5 of 9).
The variant GFTLNSYEIS, VIYSDGRRTFYLDSVK, GRAAGTFDS gave no signal (0 of 3 replicates; controls 1 of 9).
The variant GRALNSYDIS, VIYSDGRRTFYGDSVK, GRAAGTFDS gave no signal (0 of 3 replicates; controls 6 of 9).
The variant GFTLNSYWIS, VIYSCGRRTFYGDSVK, GRAAGTFHS gave no signal (0 of 3 replicates; controls 0 of 9).
The variant HFTLNSYHIS, VIYSDGRRTFYGDSVK, GAAAGTFDS gave 4.4 µM (1 of 3 replicates; controls 0 of 9).
The variant GFVLNSYEIS, VIYSDGRRTFYGDSVK, GRALGTFDS gave 7.5 µM (2 of 3 replicates; controls 2 of 9).
The variant GVTLNSYHIS, VIYSDGRRTFYGDSVK, GPAAGTFDS gave 29 µM (3 of 3 replicates; controls 1 of 9).
The variant GFTLNSYWIS, VIYSDRRRTFYGDSVK, GRAAGTFDS gave no signal (0 of 3 replicates; controls 0 of 9).
The variant GFTLNSYDIS, VLYSDGRRTFYGDSVD, GRAAGTFDS gave no signal (0 of 3 replicates; controls 1 of 9).
The variant GATLNSYWIS, VIYSDGRRTFYGDSVI, GRAAGTFDS gave no signal (0 of 3 replicates; controls 0 of 9).
The variant DFTLNSYPIS, VIYSDGRRTFYGDSVH, GRAAGTFDS gave no signal (0 of 3 replicates; controls 1 of 9).
The variant GFTLNSYRIS, VIYSMGRRTFYGDSVK, GRAAGTFDS gave no signal (0 of 3 replicates; controls 0 of 9).
The variant GFTLNSYKIS, VIYSDGRRTFYGHCVK, GRAAGTFDS gave no signal (0 of 3 replicates; controls 1 of 9).
The variant GFTLNSYFIS, VIASDGRHTFYGDSVK, GRAAGTFDS gave 2.3 µM (3 of 3 replicates; controls 4 of 9).
The variant GFTLNSYQIS, VIDSDGRRTFYGDSVK, GRAAGTMDS gave no signal (0 of 3 replicates; controls 1 of 9).
The variant GFTLNSYEIS, VIYVDGGRTFYGDSVK, GRAAGTFDS gave 1.9 µM (1 of 3 replicates; controls 2 of 9).
The variant GFTLNSYQIS, VIYSDGRRTFYGDSTK, GRAAGWFDS gave no signal (0 of 3 replicates; controls 1 of 9).
The variant GFTLNSYNII, VIYSDGRRTFYGDSVK, GRAAGRFDS gave no signal (0 of 3 replicates; controls 2 of 9).
The variant GFHLNSYRIS, VIYSDGRRTFYGDSVK, GRAAGTFDS gave no signal (0 of 3 replicates; controls 0 of 9).
The variant GFTLNSYVIS, VIYSDGRRTFYPDSVK, HRAAGTFDS gave 250 µM (2 of 3 replicates; controls 1 of 9).
The variant GFTLNSYSIS, VIYSDGRRTFYGDSVK, GRAAETQDS gave 640 nM (2 of 3 replicates; controls 0 of 9).
The variant GFTLNSYMIS, VIYSDGRRTFYGDSVK, GRAAGTIDS gave 42 µM (2 of 3 replicates; controls 3 of 9).
The variant GKTLNSYTIS, VIYSDGRRTFYGGSVK, GRAAGTFDS gave no signal (0 of 3 replicates; controls 2 of 9).
The variant GFTLNSYSIS, VIYSDGGRTFYGDSVK, GRAAGTFDS gave no signal (0 of 3 replicates; controls 0 of 9).
The variant GFTLNSYSIS, VIYSDGRSTFYGDSVK, GNAAGTFDS gave no signal (0 of 3 replicates; controls 0 of 9).
The variant GFTLNSYDIS, VIYSDGRRTFYGSSVK, GDAAGTFDS gave 82 µM (2 of 3 replicates; controls 1 of 9).
The variant GFTYNSYPIS, VIYSDGRRTFYYDSVK, GRAAGTFDS gave 9.6 µM (1 of 3 replicates; controls 4 of 9).
The variant GFTFNSYTIS, VIYSDGRRTFYGDSVK, GRAAETFDS gave no signal (0 of 3 replicates; controls 1 of 9).
The variant GFTLNSYMIS, VIYSDGRRTFYGDSVK, GRMAGTFVS gave no signal (0 of 3 replicates; controls 0 of 9).
The variant GFTLNSYLIS, VIYSDGRRPFYGDSVK, GRAAGTEDS gave 4.9 µM (1 of 3 replicates; controls 4 of 9).
The variant GFTHNSYFIS, VIYCDGRRTFYGDSVK, GRAAGTFDS gave no signal (0 of 3 replicates; controls 0 of 9).
The variant GFTLNSYLIS, VIYSDGRKTFGGDSVK, GRAAGTFDS gave no signal (0 of 3 replicates; controls 0 of 9).
The variant GFTLNSYFIS, VIYSDGRRTFYSESVK, GRAAGTFDS gave no signal (0 of 3 replicates; controls 2 of 9).
The variant GFTRNSYWIS, VIYSDGRRTLYGDSVK, GRAAGTFDS gave no signal (0 of 3 replicates; controls 1 of 9).

A selection of 4 entries from above:

For GFTRNSYWIS, VIYSDGRRTLYGDSVK, GRAAGTFDS, the assay gave no signal (0 of 3 replicates; controls 1 of 9).
For GRALNSYDIS, VIYSDGRRTFYGDSVK, GRAAGTFDS, the assay gave no signal (0 of 3 replicates; controls 6 of 9).
For GFTLNSYSIS, VIYSDGRRTFYGDSVK, GRAAETQDS, the assay gave 640 nM (2 of 3 replicates; controls 0 of 9).
For GFTLNSYRIS, VIYSMGRRTFYGDSVK, GRAAGTFDS, the assay gave no signal (0 of 3 replicates; controls 0 of 9).